This is an account of results in PubChem BioAssay AID651994 (Sanford-Burnham Center for Chemical Genomics, 2013).

Only a part is listed here, and it is no random draw. Activity calls are given as the source filed them.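 The calls were made as follows: active = mean cytotoxicity at 5 µM above about 25% (limit read from the data); inactive = the rest.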

A short description of the experiment: cytotoxicity in Sufu-KO-LIGHT cells, confirmation, cytotoxicity control for Gli-SUFU antagonist project, cell-based, ATP luminescence, single concentration (AID 651994).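 Also: cells exposed to compound overnight for roughly 16 to 18 hours; plate controls were DMSO wells with cells for no effect and medium without cells for full effect.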 The settings on record: at 5 µM, hits give high values.
As for `CC1=C2N=C(C=C3N=C(C(C)=C4[N-][C@@](C)([C@@H]5N=C1[C@](C)(CCC(=O)NC[C@@H](C)OP(=O)([O-])O[C@H]1[C@@H](O)[C@@H](n6cnc7cc(C)c(C)cc76)O[C@@H]1CO)[C@H]5CC(N)=O)[C@@](C)(CC(N)=O)[C@@H]4CCC(N)=O)[C@@](C)(CC(N)=O)[C@@H]3CCC(N)=O)C(C)(C)[C@@H]2CCC(N)=O.[C-]#N.[Co+3]`, the cytotoxicity was inactive: 11.5%.
